{"source": "patent US20070088414A1", "about": "“Particulate formulations for intradermal delivery of biologically active agents” (priority 2005, published 2007)", "experiment": "Payload determination, high molecular weight substance (Herceptin), polyacrylamide gel electrophoresis", "type": "physicochemical", "experimental": "To determine the phospholipid concentration of liposomes, 10 μl of each liposome solution was placed in a 16×100 mm glass tube along with 0.4 ml of 10 N sulfuric acid. A set of phosphate standards was prepared from a 0.645 mM stock (Sigma P3869) which was also assayed in glass tubes alongside the liposome samples. Samples, standards and blank tubes were run in duplicate. All tubes were placed in a heating block and digested for 30 minutes at 180° C. Tubes were then removed from the heating block and cooled for 5 minutes before adding 100 μl of 9% hydrogen peroxide. All tubes were then again heated for 30 minutes at 180° C. […] All standards, samples and blanks were read at 820 nm on a spectrophotometer. Using the known standard values, a curve was generated from which phosphate concentration values can be calculated for each of the liposome samples. Phosphate concentration values are expressed as μmoles Pi/mL. […]\nHerceptin monoclonal antibody was used for the determination of payload capacity for a high molecular weight substance. Approximate amount of monoclonal antibody encapsulated in liposomes was determined by polyacrylamide gel electrophoresis. A liposome sample of known phosphate concentration was loaded on a gel alongside the reference lanes of known quantities of monoclonal antibody. […]", "data": [{"substance": "Herceptin: recombinant DNA-derived humanized monoclonal antibody that binds HER2", "values": [{"measurement": "therapeutic agent portion of particle on a per weight basis", "setting": "Herceptin liposomes", "value": "about 0.07%"}, {"measurement": "payload for herceptin antibody", "setting": "antibody encapsulated in liposomes, approximated from gel band intensities", "value": "about 0.024 nmoles per 50 nmoles of phosphate"}]}]}
